Values quoted from earlier work, collected in article PMC5999399 (Journal of medicinal chemistry, 2017).

Amino acid sequences for entries named in this document (tags omitted). A change or cut given only in a name is not applied to a line headed by its entry.
UniProt Q01726: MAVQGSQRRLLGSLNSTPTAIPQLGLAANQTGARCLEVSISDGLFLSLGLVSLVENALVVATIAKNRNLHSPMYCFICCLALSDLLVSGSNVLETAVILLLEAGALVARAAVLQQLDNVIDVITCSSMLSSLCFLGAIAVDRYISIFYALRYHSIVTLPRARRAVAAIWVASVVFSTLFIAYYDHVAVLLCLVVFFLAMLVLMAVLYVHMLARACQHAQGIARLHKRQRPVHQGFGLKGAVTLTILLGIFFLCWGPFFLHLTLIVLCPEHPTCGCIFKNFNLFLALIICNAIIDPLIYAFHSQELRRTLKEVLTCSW
UniProt P32245, whole entry: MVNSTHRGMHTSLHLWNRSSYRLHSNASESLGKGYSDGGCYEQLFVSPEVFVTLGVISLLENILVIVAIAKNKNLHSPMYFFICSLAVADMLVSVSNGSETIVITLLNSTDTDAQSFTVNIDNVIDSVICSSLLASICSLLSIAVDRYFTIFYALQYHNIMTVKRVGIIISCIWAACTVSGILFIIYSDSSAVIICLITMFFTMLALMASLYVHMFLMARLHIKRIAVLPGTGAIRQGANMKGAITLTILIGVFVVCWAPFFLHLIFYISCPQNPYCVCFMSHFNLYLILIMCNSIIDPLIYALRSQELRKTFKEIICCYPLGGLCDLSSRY

Columns and labels:
human MC1R (hMC1R) = human MC1R (hMC1R) (Homo sapiens, UniProt Q01726); conditions: read-out: hMC1R EC50; cAMP accumulation; ref previously published data; cited from earlier work
human MC4R (hMC4R) [1] = biological target: T1, human MC4R (hMC4R) (Homo sapiens, UniProt P32245); conditions: read-out: hMC4R IC50; 50% specific binding; ref previously published data; cited from earlier work
human MC4R (hMC4R) [2] = biological target: T1, human MC4R (hMC4R); conditions: read-out: hMC4R EC50; cAMP accumulation; ref previously published data; cited from earlier work

For “H-Tyr-Val-Nle-Gly-His-D-Nal(2)-Arg-D-Trp-Asp-Arg-Phe-Gly-NH2 [Compound 1]”, the EC50 (human MC1R (hMC1R)) is given as 3 ± 0.2 nM, the IC50 (human MC4R (hMC4R) [1]) is given as 6 ± 1 nM and the EC50 (human MC4R (hMC4R) [2]) is given as 630 ± 70 nM.
